Details: at concentrations required for NMR (5 mM samples prepared in 50% acetonitrile-d3/50% water instead)

Q: With occidiofungin as the substance, how does the “solubility in aqueous solutions” value read?
A: Its value is “not soluble”.

— patent US10092622B2, “Occidiofungin, a unique antifungal glycopeptide produced by a strain of Burkholderia contaminans” (M[…] University Research and Technology Corporation, priority 2009, dated 2018)
